Results published in US20260055374A1, “EXPANSION OF HUMAN CELLS AND TISSUES FOR THERAPEUTIC PURPOSES AND METHODS OF USE” (HOUSEY PHARMACEUTICAL RESEARCH LABORATORIES, L.L.C., priority 2022, published 2026).

Test system: 32D cells expressing insulin receptor and insulin receptor substrate-2 (IRS-2)
Test: Viability of 32D IR/IRS-2 cells by Trypan Blue exclusion with an automated cell counter
Conditions: 32DIR-IRS-2 cells, after 72 hours of culture, data not shown

insulin
viability: ≤ 60%
